Biological target: Ca2+-activated K+ channels (Homo sapiens, UniProt O15554)
Experiment: Inhibition of thapsigargin-induced short-circuit current in T84 cells (FIG. 11A)
Format: cell-based
Conditions: 2 μM thapsigargin after 25 min 20 μM afatinib

NC(=O)C(c1ccccc1)(c1ccc(F)cc1)c1ccc(F)cc1 [senicapoc]
IC50 for inhibition of Ca2+-dependent basolateral K+ conductance: low micromolar
